{
  "sequences": {"note": "By UniProt entry, the sequences of proteins in these tests, tags left out.", "UniProt P08183, whole entry": "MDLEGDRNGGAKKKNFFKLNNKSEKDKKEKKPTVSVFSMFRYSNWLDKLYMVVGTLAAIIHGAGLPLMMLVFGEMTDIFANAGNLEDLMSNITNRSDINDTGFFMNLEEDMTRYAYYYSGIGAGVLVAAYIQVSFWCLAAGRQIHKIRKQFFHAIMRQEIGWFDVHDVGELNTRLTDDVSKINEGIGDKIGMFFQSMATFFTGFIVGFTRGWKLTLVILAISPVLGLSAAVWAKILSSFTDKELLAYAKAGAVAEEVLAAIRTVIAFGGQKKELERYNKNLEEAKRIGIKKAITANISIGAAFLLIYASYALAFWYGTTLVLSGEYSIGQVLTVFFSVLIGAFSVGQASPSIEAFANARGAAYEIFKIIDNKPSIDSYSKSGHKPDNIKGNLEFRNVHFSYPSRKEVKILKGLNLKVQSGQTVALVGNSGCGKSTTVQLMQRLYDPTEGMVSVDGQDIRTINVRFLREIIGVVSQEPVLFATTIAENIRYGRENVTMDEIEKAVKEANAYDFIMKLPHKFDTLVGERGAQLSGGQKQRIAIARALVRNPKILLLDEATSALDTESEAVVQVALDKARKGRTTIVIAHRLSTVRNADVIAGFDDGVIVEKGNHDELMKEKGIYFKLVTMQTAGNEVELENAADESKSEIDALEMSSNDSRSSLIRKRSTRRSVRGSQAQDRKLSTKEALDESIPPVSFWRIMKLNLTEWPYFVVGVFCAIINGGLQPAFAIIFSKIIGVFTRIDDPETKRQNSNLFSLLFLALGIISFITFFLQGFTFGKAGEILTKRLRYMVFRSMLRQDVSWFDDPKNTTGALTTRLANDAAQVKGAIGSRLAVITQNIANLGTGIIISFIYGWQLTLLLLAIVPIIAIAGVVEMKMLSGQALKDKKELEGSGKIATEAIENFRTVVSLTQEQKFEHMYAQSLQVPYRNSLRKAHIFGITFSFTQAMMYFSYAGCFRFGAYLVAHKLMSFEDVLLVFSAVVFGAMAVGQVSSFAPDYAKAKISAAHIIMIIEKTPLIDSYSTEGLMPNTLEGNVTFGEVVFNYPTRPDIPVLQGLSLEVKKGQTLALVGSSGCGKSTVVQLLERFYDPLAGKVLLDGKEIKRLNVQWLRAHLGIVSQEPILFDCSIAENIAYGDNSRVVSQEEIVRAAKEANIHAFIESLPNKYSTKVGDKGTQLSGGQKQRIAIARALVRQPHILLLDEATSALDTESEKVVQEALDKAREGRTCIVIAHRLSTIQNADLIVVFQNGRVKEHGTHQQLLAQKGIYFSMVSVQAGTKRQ"},
  "source": "patent US10112934B2",
  "about": "“(Cyano-dimethyl-methyl)-isoxazoles and -[1,3,4]thiadiazoles” (Centrexion Therapeutics Corporation, priority 2013, dated 2018)",
  "molecular_target": "human MDR1 P-gp (Homo sapiens (Human), UniProt P08183)",
  "assay": "MDCK assay: efflux in MDCK cells transfected with the human MDR1 gene (assay 3)",
  "format": "in vitro ADME",
  "details": "MDCK-MDR1 cell monolayers, pH 7.4, 37° C., read-out: MDCK efflux ratio (BA/AB)",
  "method": "C. Assessment of Efflux in Madin-Darby Canine Kidney Cells Transfected with the Human MDR1 Gene (MDCK Assay) (Assay 3)\nApparent permeability coefficients (PE) of the compounds across the MDCK-MDR1 cell monolayers are measured (pH 7.4, 37° C.) in apical-to-basal (AB) and basal-to-apical (BA) transport direction. AB permeability (PEAB) represents drug absorption from the blood into the brain and BA permeability (PEBA) drug efflux from the brain back into the blood via both passive permeability as well as active transport mechanisms mediated by efflux and uptake transporters that are expressed on the MDCK-MDR1 cells, predominantly by the overexpressed human MDR1 P-gp. The compounds are assigned to permeability/absorption classes by comparison of the AB permeabilities with the AB permeabilities of reference compounds with known in vitro permeability and oral absorption in the human. Identical or similar permeabilities in both transport directions indicate passive permeation, vectorial permeability points to additional active transport mechanisms. Higher PEBA than PEAB indicates the involvement of active efflux mediated by MDR1 P-gp. Active transport is concentration-dependently saturable.\nMDCK-MDR1 cells (1-2×10e5 cells/1 cm2 area) are seeded on filter inserts (Costar transwell polycarbonate or PET filters, 0.4 μm pore size) and cultured (DMEM) for 7 days. […]",
  "data": [
    {"compound": "CC(C)(C#N)c1cc(NC(=O)[C@@H]2CCCN2C2CCOCC2)on1", "note": "[Example 6, (S)-1-(Tetrahydro-pyran-4-yl)-pyrrolidine-2-carboxylic acid[3-(cyano-dimethyl-methyl)-isoxazol-5-yl]-amide]", "values": [
      {"measurement": "efflux ratio", "value": 1}
    ]}
  ]
}
